Assay results taken from patent EP1903056A2, “HLA-A1, -A2 -A3, -A24, -B7, and -B44 tumor associated antigen peptides and compositions” (priority 2002, dated 2004).

Assays:
[1] = target: B*4001(B60) (Homo sapiens, UniProt P01889, A65T/A93T/A95T/D138N/D98Y/E176V/E69K/N87E/Q56L/Q94N/R180L/S121R/S35A/S48T/T167S/V36M/W171L/Y33H/Y91S); assay: B44 supertype peptide binding, B*4001; conditions: read-out: B* 4001
[2] = target: B*4403 (Homo sapiens, UniProt P01889, A223V/A65T/A93T/A95T/D201E/D98Y/E176V/E187L/E204Q/E69K/G107R/H137Y/K202T/L105A/L119I/N104T/N87E/Q56L/Q94N/R106L/R155S/R180L/S101N/S121R/S35A/S48T/T118I/V36M/W191S/Y140D/Y91S); assay: B44 supertype peptide binding, B*4403; conditions: read-out: B* 4403
[3] = target: B*4402 (Homo sapiens, UniProt P01889, A223V/A65T/A93T/A95T/D201E/D98Y/E176V/E187L/E204Q/E69K/G107R/H137Y/K202T/L105A/L119I/N104T/N87E/Q56L/Q94N/R106L/R155S/R180D/S101N/S121R/S35A/S48T/T118I/V36M/W191S/Y140D/Y91S); assay: B44 supertype peptide binding, B*4402; conditions: read-out: B* 4402
[4] = target: B*4002 (B61) (Homo sapiens, UniProt P01889, A65T/A93T/A95T/D138N/D201E/D98Y/E176V/E204Q/E69K/K202T/N87E/Q56L/Q94N/R180L/S48T/Y33H/Y91S); assay: B44 supertype peptide binding, B*4002; conditions: read-out: B* 4002
[5] = target: B*1801 (Homo sapiens, UniProt P01889, A329T/A93T/A95T/C349S/D201E/D54G/D98Y/E176V/E187T/E204Q/E69T/K202T/Q94N/R155S/R180L/S121R/V306I/Y140S/Y195H/Y33H/Y91S); assay: B44 supertype peptide binding, B*1801
[6] = target: B*4501 (Homo sapiens, UniProt P01889, A329T/A65T/A93T/A95T/C349S/D138N/D201E/D98Y/E176V/E187L/E204Q/E69K/H137Y/K202T/L119W/N87E/Q56L/Q94N/R155S/R180D/S121R/S35A/S48T/V127L/V306I/V36M/W191S/Y140L/Y33H/Y91S); assay: B44 supertype peptide binding, B*4501
[7] = HER 2/neu-derived B44 peptides, Table 27
[8] = CEA-derived B44 peptides, binding affinity, unit inferred
[9] = HER 2/neu-derived B44 peptides, Table 27, read-out: B* 4501
[10] = Table 28: p53-derived B44 peptides

## CC[C@H](C)[C@H](NC(=O)[C@H](CCCCN)NC(=O)[C@H](CCCCN)NC(=O)[C@H](CS)NC(=O)CNC(=O)[C@H](C)NC(=O)[C@H](Cc1ccccc1)NC(=O)[C@H](CCC(=O)O)NC(=O)[C@@H](N)CCC(N)=O)C(=O)N[C@@H](Cc1ccccc1)C(=O)O
[1]; [7]
  IC50: 3690 nM
[2]; [7]
  IC50: 3.6 nM
[3]; [7]
  IC50: 4 nM
[4]; [7]
  IC50: 12 nM
[5]; [7]
  IC50: 53 nM

## CC[C@H](C)[C@H](NC(=O)[C@H](CCC(=O)O)NC(=O)[C@@H]1CCCN1C(=O)[C@H](CCC(=O)O)NC(=O)[C@@H](N)CS)C(=O)N[C@@H](CCC(N)=O)C(=O)N[C@@H](CC(N)=O)C(=O)N[C@H](C(=O)N[C@H](C(=O)N[C@@H](Cc1ccc(O)cc1)C(=O)N[C@@H](CC(C)C)C(=O)N[C@@H](Cc1c[nH]c2ccccc12)C(=O)N[C@@H](Cc1c[nH]c2ccccc12)C(=O)O)[C@@H](C)O)[C@@H](C)O [compound 401]
[1]; [8]
  IC50: 1030 nM
[2]; [8]
  IC50: 508 nM
[4]; [8]
  IC50: 3590 nM
[5]; [8]
  IC50: 204 nM
[6]; CEA-derived B44 peptides, binding affinity, unit inferred, read-out: B* 4501
  IC50: 865 nM

## CSCC[C@H](N)C(=O)N[C@@H](CCC(=O)O)C(=O)N[C@@H](CC(C)C)C(=O)N[C@@H](C)C(=O)N[C@@H](C)C(=O)N[C@@H](CC(C)C)C(=O)N[C@@H](CS)C(=O)N[C@@H](CCCNC(=N)N)C(=O)N[C@@H](Cc1c[nH]c2ccccc12)C(=O)NCC(=O)N[C@@H](CC(C)C)C(=O)O [compound 430]
[1]; [7]
  IC50: 24 nM
[2]; [7]
  IC50: 0.92 nM
[3]; [7]
  IC50: 17 nM
[4]; [7]
  IC50: 30 nM
[5]; [7]
  IC50: 6.4 nM

## CC(C)C[C@H](NC(=O)[C@H](CO)NC(=O)[C@H](C)NC(=O)[C@H](CC(N)=O)NC(=O)[C@@H](NC(=O)[C@@H]1CCCN1C(=O)[C@H](CC(C)C)NC(=O)[C@H](Cc1ccc(O)cc1)NC(=O)[C@@H](NC(=O)[C@H](CC(C)C)NC(=O)[C@H](CCC(=O)O)NC(=O)[C@@H](N)CC(C)C)[C@@H](C)O)[C@@H](C)O)C(=O)O [compound 431]
[1]; [7]
  IC50: 38 nM
[2]; [7]
  IC50: 3.7 nM
[4]; [7]
  IC50: 31 nM
[5]; [7]
  IC50: 88 nM
[6]; [9]
  IC50: 37 nM

## CC(C)C[C@H](NC(=O)[C@@H]1CCCN1C(=O)[C@H](CO)NC(=O)[C@H](C)NC(=O)[C@H](CCCNC(=N)N)NC(=O)[C@H](CCC(N)=O)NC(=O)[C@H](CCC(=O)O)NC(=O)[C@H](C)N)C(=O)O [compound 434]
[1]; [7]
  IC50: 73 nM
[2]; [7]
  IC50: 0.38 nM
[4]; [7]
  IC50: 13 nM
[5]; [7]
  IC50: 16 nM
[6]; [9]
  IC50: 120 nM

## CC[C@H](C)[C@H](NC(=O)[C@@H]1CCCN1C(=O)[C@@H]1CCCN1C(=O)[C@H](CCC(N)=O)NC(=O)[C@@H]1CCCN1C(=O)[C@H](CC(C)C)NC(=O)[C@H](CCCNC(=N)N)NC(=O)[C@H](CCC(=O)O)NC(=O)CN)C(=O)O [compound 437]
[1]; [7]
  IC50: 71 nM
[2]; [7]
  IC50: 1.1 nM
[3]; [7]
  IC50: 27 nM
[5]; [7]
  IC50: 62 nM
[6]; [9]
  IC50: 15 nM

## CC(C)C[C@H](NC(=O)[C@H](CCC(N)=O)NC(=O)[C@H](CC(C)C)NC(=O)[C@H](CCC(=O)O)NC(=O)[C@@H](N)CCCNC(=N)N)C(=O)N[C@@H](CCCNC(=N)N)C(=O)N[C@@H](CO)C(=O)N[C@@H](CC(C)C)C(=O)N[C@H](C(=O)O)[C@@H](C)O [compound 450]
[2]; [7]
  IC50: 0.2 nM
[3]; [7]
  IC50: 465 nM
[4]; [7]
  IC50: 13 nM
[5]; [7]
  IC50: 638 nM

## CC(C)C[C@H](NC(=O)[C@@H]1CCCN1C(=O)[C@H](CCC(=O)O)NC(=O)[C@@H](N)C(C)C)C(=O)N[C@H](C(=O)N1CCC[C@H]1C(=O)N[C@@H](CO)C(=O)NCC(=O)N[C@@H](C)C(=O)O)[C@@H](C)O [compound 530]
[2]; [7]
  IC50: 191 nM
[3]; [7]
  IC50: 8520 nM
[5]; [7]
  IC50: 7320 nM

## CC(C)C[C@H](NC(=O)[C@H](CCC(=O)O)NC(=O)[C@@H](NC(=O)[C@H](CCC(=O)O)NC(=O)[C@@H](N)CCCCN)[C@@H](C)O)C(=O)N[C@@H](CCCNC(=N)N)C(=O)N[C@@H](CCCCN)C(=O)N[C@H](C(=O)N[C@@H](CCCCN)C(=O)N[C@H](C(=O)O)C(C)C)C(C)C [compound 531]
[2]; [7]
  IC50: 15 nM
[3]; [7]
  IC50: 2940 nM
[5]; [7]
  IC50: 11900 nM
[6]; [9]
  IC50: 1600 nM

## CSCC[C@H](NC(=O)[C@H](CC(=O)O)NC(=O)[C@H](CC(=O)O)NC(=O)[C@H](CC(=O)O)NC(=O)[C@H](CCC(=O)O)NC(=O)[C@@H](N)CC(C)C)C(=O)NCC(=O)N[C@@H](CC(=O)O)C(=O)N[C@@H](CC(C)C)C(=O)O [compound 536]
[1]; [7]
  IC50: 556 nM
[2]; [7]
  IC50: 900 nM
[5]; [7]
  IC50: 191 nM

## CC(C)C[C@H](NC(=O)[C@H](Cc1ccc(O)cc1)NC(=O)[C@H](CCC(=O)O)NC(=O)[C@H](CCC(=O)O)NC(=O)[C@H](C)N)C(=O)N[C@H](C(=O)N1CCC[C@H]1C(=O)N[C@@H](CCC(N)=O)C(=O)N[C@@H](CCC(N)=O)C(=O)NCC(=O)O)C(C)C [compound 537]
[2]; [7]
  IC50: 479 nM
[5]; [7]
  IC50: 723 nM

## CC(C)C[C@H](NC(=O)[C@@H]1CCCN1C(=O)[C@H](CO)NC(=O)[C@H](CCCNC(=N)N)NC(=O)[C@@H]1CCCN1C(=O)[C@H](C)NC(=O)[C@H](CCC(=O)O)NC(=O)[C@H](CCC(=O)O)NC(=O)[C@H](CCC(=O)O)NC(=O)[C@@H](N)CO)C(=O)N[C@@H](C)C(=O)O [compound 538]
[2]; [7]
  IC50: 158 nM
[3]; [7]
  IC50: 8550 nM
[4]; [7]
  IC50: 5110 nM
[5]; [7]
  IC50: 1320 nM

## CSCC[C@H](NC(=O)[C@H](CC(=O)O)NC(=O)[C@H](CC(C)C)NC(=O)[C@H](Cc1c[nH]cn1)NC(=O)[C@@H](NC(=O)[C@H](CCC(=O)O)NC(=O)[C@@H]1CCCN1)[C@@H](C)O)C(=O)N[C@@H](CC(C)C)C(=O)N[C@@H](CCCNC(=N)N)C(=O)N[C@@H](Cc1c[nH]cn1)C(=O)N[C@@H](CC(C)C)C(=O)O [compound 543]
[1]; [7]
  IC50: 700 nM
[2]; [7]
  IC50: 70 nM
[3]; [7]
  IC50: 11500 nM
[5]; [7]
  IC50: 1320 nM
[6]; [9]
  IC50: 4330 nM

## CC(C)[C@H](NC(=O)[C@H](CO)NC(=O)CNC(=O)[C@H](CC(N)=O)NC(=O)[C@H](CCC(N)=O)NC(=O)[C@@H]1CCCN1C(=O)[C@H](CCC(N)=O)NC(=O)[C@H](CS)NC(=O)[C@H](CCC(=O)O)NC(=O)[C@@H]1CCCN1)C(=O)O [compound 557]
[2]; [7]
  IC50: 472 nM
[5]; [7]
  IC50: 7960 nM

## CC(C)C[C@H](NC(=O)[C@H](CCC(=O)O)NC(=O)[C@@H](N)[C@@H](C)O)C(=O)N[C@H](C(=O)N[C@@H](CCC(=O)O)C(=O)N1CCC[C@H]1C(=O)N[C@@H](CC(C)C)C(=O)N[C@H](C(=O)N1CCC[C@H]1C(=O)N[C@@H](CO)C(=O)NCC(=O)O)[C@@H](C)O)C(C)C [compound 558]
[1]; [7]
  IC50: 2980 nM
[2]; [7]
  IC50: 269 nM
[5]; [7]
  IC50: 601 nM
[6]; [9]
  IC50: 14100 nM

## C[C@H](NC(=O)[C@H](Cc1c[nH]cn1)NC(=O)[C@H](Cc1ccc(O)cc1)NC(=O)[C@H](CCC(=O)O)NC(=O)[C@@H](NC(=O)[C@H](CCC(=O)O)NC(=O)[C@@H](N)CC(=O)O)[C@@H](C)O)C(=O)N[C@@H](CC(=O)O)C(=O)NCC(=O)NCC(=O)O [compound 563]
[2]; [7]
  IC50: 269 nM
[3]; [7]
  IC50: 3890 nM
[4]; [7]
  IC50: 16800 nM
[5]; [7]
  IC50: 613 nM

## C[C@H](NC(=O)[C@H](CCC(=O)O)NC(=O)[C@H](CC(=O)O)NC(=O)[C@@H]1CCCN1C(=O)CNC(=O)[C@@H]1CCCN1C(=O)[C@H](CC(=O)O)NC(=O)[C@H](CCC(=O)O)NC(=O)[C@@H](N)[C@@H](C)O)C(=O)O [compound 639]
[1]; [10]
  IC50: 1220 nM
[2]; [10]
  IC50: 2760 nM
[3]; [10]
  IC50: 8030 nM
[4]; [10]
  IC50: > 10000 nM
[6]
  IC50: 1790 nM

Read-outs that look alike come from different tables or passages of the source.
